This note sets out measurements from PubChem BioAssay AID819 (Columbia University Molecular Screening Center, 2007).

SMILES strings stand for the structures. This is a selection; strong and weak results do not stand in their true shares. Some tests of the compounds listed are not included; inactive here does not mean inactive elsewhere. Active and inactive are the calls of the source.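 The calls were made as follows: active = activation above 40%, about the mean plus 3 SD, also judged a hit on visual image review; inconclusive = activation above 40% but not a hit on visual review; inactive = activation not above 40% and no visual hit.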

This assay can be described thus: enhancers of NFkB p65 translocation in HUVEC – imaging, IL-1B stimulus, high-content imaging, primary screen (AID 819).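 Also: percent activation is computed from the nuclear over cytoplasmic p65 intensity ratio.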 To be noted: HUVEC IL-1B NFkB p65 nuclear translocation imaging; at 2 µM; active compounds read high.
With `CC(C)N1C(=O)CC2(CCN(CCOC(=O)C(O)(c3ccccc3)c3ccccc3)CC2)C1=O`, the activation is inactive: -9.44%. Consider `CN(C)c1cccc(C(=O)NCC2(N(C)C)CCCCC2)c1`, for which the activation was inactive: 3.76%. With `O=C(OC1CN2CCC1CC2)C(CO)(c1ccccc1)c1ccccc1` (stereo not drawn), the activation was inactive: 7.28%.
